# Melting point values, as collected for the OPERA models

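The numbers are reported measurements, compiled and curated for the OPERA QSAR suite. The files give a single number for a compound and property, which may rest on several reports. Method and conditions are not stated for these values. The measured form (salt, isomer or mixture) is not always the one drawn. Unmarked limits or estimates from the upstream databases cannot be ruled out.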

The melting point is given in degrees Celsius. "via" names the databases from which the curators took the value.

The entry for O=C(O)CSc1nnc(NC2CCCCC2)s1 [{[5-(cyclohexylamino)-1,3,4-thiadiazol-2-yl]thio}acetic acid] lists MP 158 °C (via OCHEM). CSc1ccc(-c2csc(N)n2)cc1 [4-[4-(methylthio)phenyl]-1,3-thiazol-2-amine] has MP 220 °C (via OCHEM). For O=C(O)C(=Cc1ccc(F)cc1)c1cccs1 [2-Thiopheneacetic acid,a-[(4-fluorophenyl)methylene]-] the data give MP 186 °C (via OCHEM). The entry for Cn1ccnc1C(=O)c1ccco1 [(Furan-2-yl)(1-methyl-1H-imidazol-2-yl)methanone] lists MP 35 °C (via OCHEM). Oc1ccc2oc3c(c2c1)CCCC3 [2-Dibenzofuranol, 6,7,8,9-tetrahydro-] has MP 104 °C (via OCHEM). OCc1ccc(CCC(F)(F)C(F)(F)C(F)(F)C(F)(F)C(F)(F)C(F)(F)C(F)(F)C(F)(F)F)cc1 has MP 83 °C (via ChemicalBook).

Listed for CS(=O)(=O)c1ccc(O)c(N)c1 [2-Amino-4-(methylsulfonyl)phenol]: MP 87.5 °C (via PubChem). Cc1ccc(=S)[nH]c1 [5-methylpyridine-2-thiol] has MP 200 °C (via OCHEM). For O=C(Nc1cccc(Cl)c1)OCC(F)(F)F [2,2,2-trifluoroethyl 3-chlorophenylcarbamate] the data give MP 36 °C (via OCHEM). The entry for O=S(=O)(c1ccc(Br)s1)N1CCNCC1 [1-[(5-bromothien-2-yl)sulfonyl]piperazine] lists MP 200 °C (via OCHEM). NCc1ccc(OCc2ccccc2)cc1 [4-Benzyloxybenzylamine] has MP 52 °C (via OCHEM). CC(=O)CC(=O)c1ccc(Cl)cc1 [1-(4-chlorophenyl)butane-1,3-dione] has MP 69 °C (via OCHEM).

Listed for NC(=O)C1CCCC1 [Cyclopentanecarboxamide]: MP 174 °C (via OCHEM). Listed for O=S1(=O)C=CC(Br)C1 (stereo not drawn) [Thiophene, 3-bromo-2,3-dihydro-, 1,1-dioxide]: MP 54.5 °C (via OCHEM). Listed for COc1cc2c(C#N)c(OC)nc(N)c2c(N)n1 [1,8-diamino-3,6-dimethoxy-2,7-naphthyridine-4-carbonitrile]: MP 250 °C (via OCHEM). Listed for Cc1ccc(-c2noc(CC#N)n2)cc1 [[3-(4-methylphenyl)-1,2,4-oxadiazol-5-yl]acetonitrile]: MP 57 °C (via OCHEM). For Nc1cc2c(cc1[N+](=O)[O-])OCCO2 [7-Nitro-2,3-dihydro-1,4-benzodioxin-6-amine] the data give MP 151 °C (via OCHEM). Cc1cc(F)ccc1CC#N [2-(4-fluoro-2-methylphenyl)acetonitrile] has MP 25.5 °C (via OCHEM).

COc1cccc(C(=O)N(NC(=O)c2ccccc2)C(C)(C)C)c1 [N'-Benzoyl-3-methoxy-N-(2-methyl-2-propanyl)benzohydrazide] is reported with MP 188 °C (via OCHEM). O=C(O)CCCSc1nc2ccccc2s1 has MP 104 °C (via OCHEM). Cc1ccc(NC(=O)NC(=O)CCl)cc1C [2-Chloro-N-[(3,4-dimethylphenyl)carbamoyl]acetamide] is reported with MP 145 °C (via OCHEM). COC(=O)c1cccc(S(=O)(=O)Cl)c1 [Benzoic acid, 3-(chlorosulfonyl)-, methyl ester] has MP 52 °C (via OCHEM). The entry for CCOc1ccc(OCC2CO2)cc1 (stereo not drawn) [2-[(4-ethoxyphenoxy)methyl]oxirane] lists MP 54 °C (via OCHEM). Listed for O=c1[nH]c2ccc(S(=O)(=O)Cl)cc2[nH]1 [2-Oxo-2,3-dihydro-1H-benzimidazole-5-sulfonyl chloride]: MP 211 °C (via OCHEM).

Listed for Cc1ccc(NC(=O)CCl)cc1Cl [2-chloro-N-(3-chloro-4-methylphenyl)acetamide]: MP 74 °C (via OCHEM). Listed for CCCNC(=O)CC#N [2-cyano-N-propylacetamide]: MP 54 °C (via OCHEM). For O=C(O)C#Cc1cccc(Cl)c1 [3-(3-Chlorophenyl)-2-propynoic acid] the data give MP 144.7 °C (via PubChem). Listed for Brc1cnc(N2CCCC2)nc1OCc1ccccc1 [4-(Benzyloxy)-5-bromo-2-(pyrrolidin-1-yl)pyrimidine]: MP 106.5 °C (via OCHEM). Listed for O=C(O)c1cccnc1Sc1ccc(Br)cc1 [2-[(4-Bromophenyl)sulfanyl]pyridine-3-carboxylic acid]: MP 224 °C (via OCHEM). S=c1[nH]nc(Cc2ccccc2)o1 [5-benzyl-1,3,4-oxadiazole-2-thiol] has MP 125 °C (via OCHEM).

For Cl.FC(F)(F)c1nnc2n1CCNC2 the data give MP 264 °C (via eChemPortal). Nc1ccc(OCc2cccs2)cc1 [4-[(Thiophen-2-yl)methoxy]aniline] is reported with MP 62 °C (via OCHEM). CSCCC(NC(=O)c1cccc(C)c1)C(=O)O (stereo not drawn) [N-(3-Methylbenzoyl)methionine] is reported with MP 116 °C (via OCHEM). The entry for C=CCNC(=O)c1ccccc1N [N-allyl-2-aminobenzamide] lists MP 93 °C (via OCHEM). Listed for O=c1nc(CO)[nH]c2ccccc12 [2-(hydroxymethyl)quinazolin-4(3h)-one]: MP 222 °C (via OCHEM). The entry for CCCCCCCCCCCCCCCCCCN(CCCCCCCCCCCCCCCCCC)C(=O)c1ccccc1C(=O)O [Benzoic acid, 2-[(dioctadecylamino)carbonyl]-] lists MP 41.15 °C (via eChemPortal).

For COc1ccc(-c2csc(N)n2)cc1Br [4-(3-bromo-4-methoxyphenyl)-1,3-thiazol-2-amine] the data give MP 189 °C (via OCHEM). COc1ccc(C2(c3ccc(OC)cc3)NC(=O)NC2=O)cc1 [5,5-Bis(4-methoxyphenyl)imidazolidine-2,4-dione] has MP 238 °C (via OCHEM). COC(=O)c1cc2c(Br)cccc2[nH]1 [methyl 4-bromo-1H-indole-2-carboxylate] is reported with MP 160 °C (via OCHEM). The entry for Nc1nc(-c2cccnc2)cs1 [4-(3-Pyridinyl)-2-thiazolamine] lists MP 191 °C (via OCHEM). O=C(O)c1ccc(NS(=O)(=O)c2ccccc2)cc1 [4-Benzenesulfonylaminobenzoic acid] has MP 210 °C (via OCHEM). The entry for S=c1[nH]c2cc(Cl)cnc2[nH]1 [6-Chloro-1,3-dihydro-2H-imidazo[4,5-b]pyridine-2-thione] lists MP 353 °C (via OCHEM).

NNC(=O)C(=O)NCc1ccco1 [N-[(Furan-2-yl)methyl]-2-hydrazinyl-2-oxoacetamide] has MP 159 °C (via OCHEM). For Cc1c(C)n(-c2ccc(Cl)cc2)c2ncnc(N)c12 the data give MP 250 °C (via OCHEM). CC(C)(C)N(NC(=O)c1ccccc1)C(=O)c1ccccc1F [N'-Benzoyl-2-fluoro-N-(2-methyl-2-propanyl)benzohydrazide] is reported with MP 184 °C (via OCHEM). The entry for ClCc1cc(Cl)cc2c1OC(c1ccccc1)OC2 (stereo not drawn) [6-Chloro-8-(chloromethyl)-2-phenyl-2H,4H-1,3-benzodioxine] lists MP 112 °C (via OCHEM). Listed for Clc1ccccc1Nc1nc2ccccc2s1 [N-(2-chlorophenyl)-1,3-benzothiazol-2-amine]: MP 127 °C (via OCHEM).

The first 8 entries again:

O=C(O)CSc1nnc(NC2CCCCC2)s1 [{[5-(cyclohexylamino)-1,3,4-thiadiazol-2-yl]thio}acetic acid] is reported with MP 158 °C (via OCHEM).
CSc1ccc(-c2csc(N)n2)cc1 [4-[4-(methylthio)phenyl]-1,3-thiazol-2-amine] is reported with MP 220 °C (via OCHEM).
O=C(O)C(=Cc1ccc(F)cc1)c1cccs1 [2-Thiopheneacetic acid,a-[(4-fluorophenyl)methylene]-] is reported with MP 186 °C (via OCHEM).
Cn1ccnc1C(=O)c1ccco1 [(Furan-2-yl)(1-methyl-1H-imidazol-2-yl)methanone] is reported with MP 35 °C (via OCHEM).
Oc1ccc2oc3c(c2c1)CCCC3 [2-Dibenzofuranol, 6,7,8,9-tetrahydro-] is reported with MP 104 °C (via OCHEM).
OCc1ccc(CCC(F)(F)C(F)(F)C(F)(F)C(F)(F)C(F)(F)C(F)(F)C(F)(F)C(F)(F)F)cc1 is reported with MP 83 °C (via ChemicalBook).
CS(=O)(=O)c1ccc(O)c(N)c1 [2-Amino-4-(methylsulfonyl)phenol] is reported with MP 87.5 °C (via PubChem).
Cc1ccc(=S)[nH]c1 [5-methylpyridine-2-thiol] is reported with MP 200 °C (via OCHEM).

Data: OPERA 2.9 data sets, kmansouri/OPERA on GitHub.